{"source": "PubChem BioAssay AID1910", "about": "(Broad Institute, 2009)", "note": "This is a selection; strong and weak results do not stand in their true shares. Active and inactive are the calls of the source.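 The calls were made as follows: active = mean activation of at least 10% of the iron chelator positive control signal, with at least half of replicates also reaching 10%; inconclusive = mean and replicate majority disagree about reaching 10%; inactive = mean and most replicates under 10%.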", "data": [{"assay": "hypoxia response element reporter activation – cell-based, U2OS HRE-luciferase, luminescence, primary screen (AID 1910)", "conditions": "stronger effect = higher value, screened at 7.5 µM (by protocol), normalized: DMSO 0%, desferrioxamine 100%", "values": [{"smiles": "Cc1c2non([O-])c-2c(C)[n+](=O)[n+]1[O-]", "activation": "inactive: -0.444%"}, {"smiles": "O=C(NC(Sc1ccncn1)C(Cl)(Cl)Cl)c1ccccc1", "note": "(stereo not drawn)", "activation": "inactive: -0.554%"}, {"smiles": "Oc1ccccc1CNc1ccccn1", "activation": "inactive: 0.221%"}, {"smiles": "CC(C)CC(=O)NC(Sc1ccc(Cl)cc1)C(Cl)(Cl)Cl", "note": "(stereo not drawn)", "activation": "inactive: -0.19%"}, {"smiles": "Nc1cc(N)c2nonc2c1[N+](=O)[O-]", "activation": "inactive: 0.312%"}, {"smiles": "Clc1ccc(Cl)c(NC2=NCC(CBr)S2)c1", "note": "(stereo not drawn)", "activation": "inactive: -0.213%"}, {"smiles": "CN1CCCC(OC(=O)C(c2ccccc2)c2ccccc2)C1", "note": "(stereo not drawn)", "activation": "inactive: -1.16%"}, {"smiles": "Cc1ccc(OP(=O)(Nc2nccs2)Oc2ccc(C)cc2)cc1", "activation": "inactive: -0.908%"}, {"smiles": "COc1ccccc1OP(=O)(Nc1ccc(C)cn1)Oc1ccccc1OC", "activation": "inactive: 0.19%"}, {"smiles": "Cc1ccc(N/C(=N/P(=O)(N2CCOCC2)N2CCOCC2)N2CCOCC2)cc1", "activation": "inactive: -0.0957%"}, {"smiles": "NC(=O)c1cc([N+](=O)[O-])cc([N+](=O)[O-])c1N", "activation": "inactive: -1.11%"}, {"smiles": "Nc1cccc2ccc([As](=O)(O)O)cc12", "activation": "inactive: -1.85%"}, {"smiles": "CCN(N=Nc1nonc1N)c1nonc1N", "activation": "inactive: 0.029%"}, {"smiles": "O=[N+]([O-])c1cc([N+](=O)[O-])c(CCN2CCOCC2)c([N+](=O)[O-])c1", "activation": "inactive: 1.1%"}, {"smiles": "CN(C(=O)Cc1ccc(Cl)c(Cl)c1)[C@H]1CCCC[C@@H]1N1CCCC1", "activation": "inactive: -0.0419%"}, {"smiles": "Cc1ccc(NP(=O)(Oc2ccccc2F)Oc2ccccc2F)nc1", "activation": "inactive: 0.0734%"}, {"smiles": "CCOP(=O)(Nc1ccccc1)OCC", "activation": "inactive: 0.0526%"}, {"smiles": "Cc1cc(SC(NC(=O)c2ccc(F)cc2)C(Cl)(Cl)Cl)ncn1", "note": "(stereo not drawn)", "activation": "inactive: -0.17%"}, {"smiles": "O=P(Nc1nc2ccc(Cl)cc2s1)(c1ccccc1)c1ccccc1", "activation": "inactive: 0.272%"}, {"smiles": "O=C(O)c1ccccc1[As](=O)(O)O", "activation": "inactive: -0.503%"}, {"smiles": "CC(=O)Nc1ccc([As](=O)(O)O)cc1", "activation": "inactive: -0.77%"}, {"smiles": "O=C(O)CNc1ccc([As](=O)(O)O)cc1", "activation": "inactive: -1.33%"}, {"smiles": "O=[N+]([O-])c1cccc(NC2=NCC(CBr)S2)c1", "note": "(stereo not drawn)", "activation": "inactive: -0.077%"}, {"smiles": "O=[N+]([O-])c1ncn(CCn2ncnc2[N+](=O)[O-])n1", "activation": "inactive: -0.563%"}, {"smiles": "CC(C)(C)C(=O)NC(Sc1ccncn1)C(Cl)(Cl)Cl", "note": "(stereo not drawn)", "activation": "inactive: -0.404%"}, {"smiles": "O=C(Nc1cc([As](=O)(O)O)ccc1O)c1ccccc1", "activation": "inactive: -3.01%"}, {"smiles": "CC1CCN(C(=O)Oc2c(Cl)cc(Cl)c3cccnc23)CC1", "activation": "inactive: -0.0681%"}, {"smiles": "CN(C)C(=O)OCCc1n(C)cc[n+]1C", "activation": "inactive: -0.158%"}, {"smiles": "CC(C)=N/N=C(\\N)N[N+](=O)[O-]", "activation": "inactive: -0.246%"}, {"smiles": "CCN(/C(=N/P(=O)(N1CCOCC1)N1CCOCC1)N1CCOCC1)c1ccc(OC)cc1", "activation": "inactive: 0.0401%"}, {"smiles": "C[N+]1=C2C=CC=CC=C2SC12C([N+](=O)[O-])=CC([N+](=O)[O-])=C[C-]2[N+](=O)[O-]", "note": "(stereo not drawn)", "activation": "inactive: 1.76%"}, {"smiles": "Nc1ccc([As](=O)(O)c2ccc(N)cc2)cc1", "activation": "inactive: -0.416%"}, {"smiles": "O=[N+]([O-])c1cc([N+](=O)[O-])c(CCNc2ccccc2)c([N+](=O)[O-])c1", "activation": "inactive: -0.643%"}, {"smiles": "CCc1nc2c(n1)c1c(non1O)c1c2no[n+]1[O-]", "activation": "inactive: 4.3%"}, {"smiles": "Cc1ccc(NP(=O)(Oc2ccccc2)Oc2ccccc2)nc1", "activation": "inactive: 0.508%"}, {"smiles": "CC(=O)N1C2C3N(C(C)=O)C1C1N(C(C)=O)C(C(N1C(C)=O)N3C(C)=O)N2C(C)=O", "activation": "inactive: 0.101%"}, {"smiles": "O=[N+]([O-])c1cccc2n[nH]nc12", "activation": "inactive: -2.21%"}, {"smiles": "COc1ccc(C2=NCC(CBr)S2)cc1", "note": "(stereo not drawn)", "activation": "inactive: -0.261%"}, {"smiles": "c1nnnn1CCn1cnnn1", "activation": "inactive: 0.377%"}, {"smiles": "O=P(Nc1nccs1)(c1ccccc1)c1ccccc1", "activation": "inactive: -0.067%"}, {"smiles": "CC(C)C(=O)NC(Sc1ccccc1)C(Cl)(Cl)Cl", "note": "(stereo not drawn)", "activation": "inactive: -0.0639%"}, {"smiles": "O=C(OC1CN2CCC1CC2)c1cccc(Cl)c1", "note": "(stereo not drawn)", "activation": "inactive: -0.152%"}, {"smiles": "Nc1ccc([As](=O)(O)c2ccc([N+](=O)[O-])cc2)cc1", "activation": "inactive: -0.278%"}, {"smiles": "C(Cc1nn[nH]n1)Cc1nn[nH]n1", "activation": "inactive: 0.0121%"}, {"smiles": "O=[As](O)(c1ccccc1)c1ccc(O)cc1", "activation": "inactive: -0.241%"}, {"smiles": "O=[N+]([O-])c1ncn(CCn2cnc([N+](=O)[O-])n2)n1", "activation": "inactive: -0.156%"}, {"smiles": "CC(=O)NC(SC(=S)N(C)C)C(Cl)(Cl)Cl", "note": "(stereo not drawn)", "activation": "inactive: 0.0694%"}, {"smiles": "O=[N+]([O-])c1ccc(O)c(/C=N/Nc2ccc([N+](=O)[O-])cc2[N+](=O)[O-])c1", "activation": "inactive: 0.139%"}, {"smiles": "C[C@H]1OP(=O)(Oc2ccccc2)[C@H](O)[C@H](O)[C@H]1N=[N+]=[N-]", "note": "(stereo partly drawn)", "activation": "inactive: 0.0986%"}, {"smiles": "O=P(Nc1nc2ccccc2s1)(c1ccccc1)c1ccccc1", "activation": "inactive: 0.416%"}, {"smiles": "CN(C)C1(CNC(=O)c2ccc(Cl)c(S(N)(=O)=O)c2)CCCCC1", "activation": "inactive: 1.09%"}, {"smiles": "O=P(Nc1ccccn1)(c1ccc(Br)cc1)c1ccc(Br)cc1", "activation": "inactive: -0.15%"}, {"smiles": "CN(C)C(=O)Oc1noc2ccccc12", "activation": "inactive: -0.288%"}, {"smiles": "Cc1ccccc1OP(=O)(Nc1ccccn1)Oc1ccccc1C", "activation": "inactive: -0.0794%"}, {"smiles": "CCC(=O)N1C2C3N(C(=O)CC)C1C1N(C(=O)CC)C(C(N1C(=O)CC)N3C(=O)CC)N2C(=O)CC", "activation": "inactive: -0.0106%"}, {"smiles": "O=C(OC1CN2CCC1CC2)c1ccccc1", "note": "(stereo not drawn)", "activation": "inactive: -10.8%"}, {"smiles": "Cc1ccc(OP(=O)(Nc2ccccn2)Oc2ccc(C)cc2)cc1", "activation": "inactive: 0.47%"}, {"smiles": "CC(=O)NC(SC(=S)N(CC(C)C)CC(C)C)C(Cl)(Cl)Cl", "note": "(stereo not drawn)", "activation": "inactive: 0.0515%"}, {"smiles": "COC(=O)c1cc2c(s1)N=C(c1ccccc1)N(C)P2(=O)N1CCOCC1", "note": "(stereo not drawn)", "activation": "inactive: -0.192%"}, {"smiles": "CCOC(=O)NC(Sc1ccccc1)C(Cl)(Cl)Cl", "note": "(stereo not drawn)", "activation": "inactive: -0.152%"}, {"smiles": "Cc1ccc(NP(=O)(Oc2cccc(C)c2)Oc2cccc(C)c2)nc1", "activation": "inactive: 0.795%"}, {"smiles": "c1ccc(-c2nn[nH]n2)c(-c2nn[nH]n2)c1", "activation": "inactive: -0.387%"}, {"smiles": "O=C(NC1CCS(=O)(=O)C1)NP(=S)(Oc1ccccc1)Oc1ccccc1", "note": "(stereo not drawn)", "activation": "inactive: -0.211%"}]}]}
